Experimental data published in US8952023B1, “Compounds useful for treating injuries from warfare agents” (dated 2015).

Sequences of proteins named here, by UniProt entry; tags and fusion partners are left off.
UniProt O75762, whole entry, looked up: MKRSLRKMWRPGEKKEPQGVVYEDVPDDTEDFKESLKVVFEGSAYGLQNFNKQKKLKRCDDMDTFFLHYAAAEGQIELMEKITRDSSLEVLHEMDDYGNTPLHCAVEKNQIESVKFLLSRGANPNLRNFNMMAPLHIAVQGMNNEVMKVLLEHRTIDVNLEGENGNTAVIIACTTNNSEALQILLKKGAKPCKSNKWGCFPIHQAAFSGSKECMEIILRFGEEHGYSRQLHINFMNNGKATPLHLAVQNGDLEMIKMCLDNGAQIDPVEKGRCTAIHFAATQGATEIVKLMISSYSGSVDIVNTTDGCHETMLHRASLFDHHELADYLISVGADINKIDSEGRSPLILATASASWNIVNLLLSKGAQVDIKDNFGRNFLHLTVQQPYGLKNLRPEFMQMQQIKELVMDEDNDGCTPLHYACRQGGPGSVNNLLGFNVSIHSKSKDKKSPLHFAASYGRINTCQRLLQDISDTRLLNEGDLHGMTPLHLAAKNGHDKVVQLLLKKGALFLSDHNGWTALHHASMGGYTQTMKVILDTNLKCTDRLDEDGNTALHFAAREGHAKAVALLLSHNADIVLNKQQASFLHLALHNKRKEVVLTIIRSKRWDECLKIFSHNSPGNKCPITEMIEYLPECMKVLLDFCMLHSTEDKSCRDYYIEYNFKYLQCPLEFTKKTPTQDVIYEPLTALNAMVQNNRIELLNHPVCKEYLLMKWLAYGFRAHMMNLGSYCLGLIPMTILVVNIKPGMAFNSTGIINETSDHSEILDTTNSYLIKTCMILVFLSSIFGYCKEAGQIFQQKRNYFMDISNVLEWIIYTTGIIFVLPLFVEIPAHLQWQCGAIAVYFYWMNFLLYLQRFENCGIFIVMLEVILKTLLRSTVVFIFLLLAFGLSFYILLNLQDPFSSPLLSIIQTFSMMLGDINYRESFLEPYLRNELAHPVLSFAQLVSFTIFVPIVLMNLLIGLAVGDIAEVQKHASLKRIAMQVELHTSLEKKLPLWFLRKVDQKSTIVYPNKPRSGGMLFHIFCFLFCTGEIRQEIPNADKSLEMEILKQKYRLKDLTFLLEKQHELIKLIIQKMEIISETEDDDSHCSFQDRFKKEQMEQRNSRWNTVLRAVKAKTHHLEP

Target: human TRPA1 (Homo sapiens, UniProt O75762)
Assay: Whole-cell patch clamp experiments, block of TRPA1 current in the continued presence of AITC
[1] = read-out: Activity (IC50), the 1st table, scaffold drawing 19
[2] = read-out: Activity (IC50), the 2nd table, scaffold drawing 20

Structure (SMILES) | pIC50 [2] | further results
COCCCOc1cccc(C2NC(=S)NC3=C2C(=O)c2ccccc23)c1 (stereo not drawn) |  | pIC50 [1]: 6.30 to 7.00
COc1ccc(C2NC(=S)NC3=C2C(=O)c2ccccc23)cc1 (stereo not drawn) |  | pIC50 [1]: 6.30 to 7.00
Cc1ccc2c(c1)C(=O)C1=C2NC(=S)NC1c1cc(O)ccc1Br (stereo not drawn) | 6.00 to 6.30 | 
C#CCOc1cccc(C2NC(=O)NC3=C2C(=O)c2ccccc23)c1 (stereo not drawn) |  | pIC50 (read-out: Activity (IC50), the 5th table, scaffold drawing 23): 6.30 to 7.00
CCCCc1cccc(C2NC(=O)NC3=C2C(=O)c2cccnc23)c1 (stereo not drawn) |  | pIC50 (read-out: Activity (IC50), the 9th table, scaffold drawing 34): 6.30 to 7.00
O=C1C2=C(NC(=S)NC2c2cc(O)ccc2Br)c2ccc(Cl)cc21 (stereo not drawn) | < 6.00 | 
O=C1C2=C(NC(=S)NC2c2cc(O)ccc2Br)c2cc(O)ccc21 (stereo not drawn) | < 6.00 | 
O=C1C2=C(NC(=S)NC2c2cc(O)ccc2Br)c2ccc(O)cc21 (stereo not drawn) | < 6.00 | 
O=C1NC2=C(C(=O)c3ccccc32)C(c2cccc3nonc23)N1 (stereo not drawn) |  | pIC50 (read-out: Activity (IC50), the 6th table, scaffold drawing 24): < 6.00
O=C1C2=C(NC(=S)NC2c2cc(O)ccc2Br)c2cccc(O)c21 (stereo not drawn) | < 6.00 | 
O=C1C2=C(NC(=S)NC2c2cc(O)ccc2Br)c2cccc(Cl)c21 (stereo not drawn) | > 7.00 | 
O=C1C2=C(NC(=S)NC2c2ccccc2F)c2ccccc21 (stereo not drawn) |  | pIC50 [1]: 6.30 to 7.00

pIC50: −log10 of the molar value. Where two headings read alike, the source gives them in different places.
